{"source": "patent US20100261219A1", "about": "“TEST METHOD OF BIOAVAILABILITY AND BIOEQUIVALENCE FOR XENOBIOTICS USING GENETIC PROFILING” (priority 2008, published 2010)", "key": {"[1]": {"details": "all participants without classification of genotypes"}, "[2]": {"details": "participants having wild type CYP2D6 only"}}, "note": "Read-outs that look alike come from different tables or passages of the source.", "data": [{"smiles": "Cc1nc2n(c(=O)c1CCN1CCC(c3noc4cc(F)ccc34)CC1)CCCC2", "note": "[risperidone, Risperidone]", "values": [{"measurement": "CVb of AUC values", "setting": "[1]", "result": 22.2, "unit": "%"}, {"measurement": "CVb of Cmax values", "setting": "[1]", "result": 20.8, "unit": "%"}, {"measurement": "CVb of AUC values", "setting": "[2]", "result": 15, "unit": "%"}, {"measurement": "CVb of Cmax values", "setting": "[2]", "result": 13.6, "unit": "%"}]}]}
